Columns and labels:
[1] = tested on: chicken erythrocyte genomic DNA; assay: Spectrophotometry of complexation with genomic DNA
[2] = tested on: PC-3 cells; settings: PC-3, 0.5 µM (IC25), 3 days
[3] = tested on: HCT-116; assay: MTS cytotoxicity assay; settings: from the mean IC50 value for HSF cells
Description: (§1) The study utilized human cell lines including PC-3 (human prostate adenocarcinoma), HSF (primary human skin fibroblasts), MDA-MB-231 (estrogen-negative breast adenocarcinoma), MCF-7 (estrogen-positive breast adenocarcinoma), MSC (multipotent stem cells derived from adipose tissue), SF-539 (brain gliosarcoma), SNB-19 (glioblastoma), A-498 (kidney carcinoma), M-14 (human melanoma), NCI-H322-M (primary bronchioalveolar carcinoma), HCT-15 (colon adenocarcinoma), and HCT-116 (colorectal intestinal carcinoma). We also used immortalized C2C12 mouse myoblasts (ATCC—CRL-1772). Cancer cell lines were obtained from the ATCC collection and generously provided by the Fox Chase Cancer Center (Philadelphia, USA). Conditionally normal cells, including skin fibroblasts and multipotent stem cells, were isolated by our group from postoperative materials (skin and subcutaneous fat) obtained from a conditionally healthy donor. Reagents and consumables for cell culture work were purchased from PanEco (Russia).
(§2) The cytotoxicity of the compounds under study was assessed using MTS assay on cell cultures. Cells were seeded into 96-well plates at a concentration of 10,000–20,000 cells/mL. After 24 h, gradient concentrations of the compounds were added to the culture medium and the plates were incubated for 72 h. Subsequently, the culture medium was replaced with MTS reagents (Sigma-Aldrich, Burlington, MA, USA) (MTS:PMS (0.18:0.0092 mg/mL)) and dissolved in phenol-free RPMI 1640 medium. After 2 h of incubation, the resulting water-soluble formazan was measured using the TECAN Infinite M200 Pro microplate reader at wavelengths of 555/750 nm. As a control, equivalent volumes of the solvents in which each compound was dissolved (dH2O/DMSO) were used. To calculate the percentage of viable cells relative to the control, which was considered 100%, dose-response curves were plotted against the logarithm of the compound concentration. […]

[4] = tested on: PC-3; assay: MTS cytotoxicity assay; settings: from the mean IC50 value for HSF cells
Description: as §1, §2

[5] = tested on: MCF-7; assay: MTS cytotoxicity assay; settings: from the mean IC50 value for HSF cells
Description: as §1, §2

COc1cccc2c1C(=O)c1c(O)c3c(c(O)c1C2=O)C[C@@](O)(C(=O)CO)C[C@@H]3O[C@H]1C[C@H](N)[C@H](O)[C@H](C)O1 [DOX, Doxorubicin]
Shift of the Absorption Maximum Relative to Control ([1]; DNA concentration 15 µg/mL): 14 nm
Shift of the Absorption Maximum Relative to Control ([1]; DNA concentration 20 µg/mL): 14 nm
Shift of the Absorption Maximum Relative to Control ([1]; DNA concentration 30 µg/mL): 20 nm
Shift of the Absorption Maximum Relative to Control ([1]; DNA concentration 60 µg/mL): 25 nm
Shift of the peak to a longer wavelength on interaction with genomic DNA ([1]; over the DNA concentrations tested): 14–25 nm
Tail Moment [2]: 13.45
Selectivity index IC50 HSF/IC50 HCT-116 [3]: 1.55 ± 1.45
Selectivity index IC50 HSF/IC50 PC-3 [4]: 1.72 ± 1.56
Selectivity index IC50 HSF/IC50 MCF-7 [5]: 16.45 ± 8.5

Source: paper PMC10970924, “Anticancer Potential of Pyridoxine-Based Doxorubicin Derivatives: An In Vitro Study” (Life, 2024)
